Measurements: patent publication US6075029A, “Xanthine modulators of metabolism of cellular P-450” (Cell Therapeutics, Inc., priority 1998, dated 2000)

The chains behind the UniProt entries cited, without tags or fusion partners.
UniProt P05177, whole entry: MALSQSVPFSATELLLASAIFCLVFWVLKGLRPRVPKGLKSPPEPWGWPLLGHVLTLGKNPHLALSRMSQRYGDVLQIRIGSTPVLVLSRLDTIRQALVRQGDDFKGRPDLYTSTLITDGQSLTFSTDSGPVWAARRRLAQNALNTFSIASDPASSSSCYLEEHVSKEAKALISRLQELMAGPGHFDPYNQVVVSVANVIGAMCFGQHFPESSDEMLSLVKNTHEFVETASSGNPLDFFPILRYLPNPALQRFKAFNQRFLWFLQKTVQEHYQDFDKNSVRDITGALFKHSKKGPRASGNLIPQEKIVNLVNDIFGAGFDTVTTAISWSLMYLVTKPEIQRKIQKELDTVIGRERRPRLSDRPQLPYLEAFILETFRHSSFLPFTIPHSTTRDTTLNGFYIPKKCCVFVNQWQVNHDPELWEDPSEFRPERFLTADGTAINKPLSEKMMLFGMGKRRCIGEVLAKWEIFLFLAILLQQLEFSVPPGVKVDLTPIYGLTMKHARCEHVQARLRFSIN

Target: P-4501A2 (Homo sapiens, UniProt P05177)
Assay: Inhibition of P-450 mediated caffeine metabolism to paraxanthine in human liver microsomes
Conditions: summary of Table 1
Procedure: The model system directly measures inhibition of P-4501A2-mediated metabolism in the physiological environment of human liver microsomes. Measurement of drug metabolism in a microsome system is directly predictive of liver metabolism in vivo. Thus, microsome data can be used to estimate the in vivo circulating half-life of compounds that are primarily metabolized in the liver.
Microsomes were prepared by standard techniques from four human livers. […] Three sets of enantiomers, CT2408 R&S, CT2410 R&S, and CT2412 R&S, were evaluated for inhibition of caffeine metabolism to paraxanthine by P-450.
Briefly, the inventive compounds were preincubated in microsomes with NADPH at concentrations of 100 μM for 0, 5, and 20 minutes. Samples containing only buffer, LSF, or furafylline were used as controls.
At the end of the preincubation period, the samples were diluted in a solution of NADPH and caffeine. The samples then were incubated for twenty minutes. Hydroxyethyl theophylline was added as an internal standard, and the samples were analyzed for paraxanthine via HPLC. […]
Thirty microliters of reconstituted sample were then applied to an Hewlett Packard 1050 HPLC system equipped with a Rainin Microsorb™ 4.6×100 mm column with 3 μm C-18 packing. […] Column eluent was monitored at 285 nm and paraxanthine, HET, and caffeine respectively eluted at 5.3, 6.6, and 9.8 minutes.

Cc1nc2c([nH]1)c(=O)n(C)c(=O)n2Cc1ccco1 [FRF, 1,8-dimethyl-3-(2'furfuryl)-methylxanthine, reference compound]
inhibition of P-450-mediated caffeine metabolism (in words): showed good inhibition
